From ChEMBL document CHEMBL2440098, “Binding mode characterization of 6α- and 6β-N-heterocyclic substituted naltrexamine derivatives via docking in opioid receptor crystal structures and site-directed mutagenesis studies: application of the 'message-address' concept in development of mu opioid receptor selective antagonists” (Bioorg Med Chem, 2013)

How the values were obtained:
Homo sapiens [1] = species: Homo sapiens; assay: Selectivity ratio of Ki for DOR (unknown origin) to Ki for KOR (unknown origin)
Homo sapiens [2] = species: Homo sapiens; assay: Selectivity ratio of Ki for MOR (unknown origin) to Ki for KOR (unknown origin)

N=C(N)Nc1ccc2[nH]c3c(c2c1)C[C@@]1(O)[C@H]2Cc4ccc(O)c5c4[C@@]1(CCN2CC1CC1)[C@H]3O5
Ratio Ki (Homo sapiens [1]): 250
Ratio Ki (Homo sapiens [2]): 120
